We go through 22 molecules from paper PMC7723054.

The list shows a part of the results.

First the molecules themselves.
T1: LIN28A (human?, UniProt Q9H9Z2 1-209)
T1 sequence: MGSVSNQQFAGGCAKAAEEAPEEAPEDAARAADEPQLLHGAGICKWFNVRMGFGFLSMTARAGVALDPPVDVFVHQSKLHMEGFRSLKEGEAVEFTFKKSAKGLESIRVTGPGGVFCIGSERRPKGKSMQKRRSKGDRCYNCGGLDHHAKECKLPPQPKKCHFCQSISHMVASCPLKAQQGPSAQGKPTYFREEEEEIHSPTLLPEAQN

T2: CIRBP (Homo sapiens, UniProt Q14011 1-172)
T2 sequence: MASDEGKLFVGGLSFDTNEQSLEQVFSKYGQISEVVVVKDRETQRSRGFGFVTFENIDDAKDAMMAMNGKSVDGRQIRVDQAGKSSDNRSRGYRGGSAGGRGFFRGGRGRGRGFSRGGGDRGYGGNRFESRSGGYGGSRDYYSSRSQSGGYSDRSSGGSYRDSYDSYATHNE

T3: DHX36 (Homo sapiens, UniProt Q9H2U1 1-1008)
T3 sequence: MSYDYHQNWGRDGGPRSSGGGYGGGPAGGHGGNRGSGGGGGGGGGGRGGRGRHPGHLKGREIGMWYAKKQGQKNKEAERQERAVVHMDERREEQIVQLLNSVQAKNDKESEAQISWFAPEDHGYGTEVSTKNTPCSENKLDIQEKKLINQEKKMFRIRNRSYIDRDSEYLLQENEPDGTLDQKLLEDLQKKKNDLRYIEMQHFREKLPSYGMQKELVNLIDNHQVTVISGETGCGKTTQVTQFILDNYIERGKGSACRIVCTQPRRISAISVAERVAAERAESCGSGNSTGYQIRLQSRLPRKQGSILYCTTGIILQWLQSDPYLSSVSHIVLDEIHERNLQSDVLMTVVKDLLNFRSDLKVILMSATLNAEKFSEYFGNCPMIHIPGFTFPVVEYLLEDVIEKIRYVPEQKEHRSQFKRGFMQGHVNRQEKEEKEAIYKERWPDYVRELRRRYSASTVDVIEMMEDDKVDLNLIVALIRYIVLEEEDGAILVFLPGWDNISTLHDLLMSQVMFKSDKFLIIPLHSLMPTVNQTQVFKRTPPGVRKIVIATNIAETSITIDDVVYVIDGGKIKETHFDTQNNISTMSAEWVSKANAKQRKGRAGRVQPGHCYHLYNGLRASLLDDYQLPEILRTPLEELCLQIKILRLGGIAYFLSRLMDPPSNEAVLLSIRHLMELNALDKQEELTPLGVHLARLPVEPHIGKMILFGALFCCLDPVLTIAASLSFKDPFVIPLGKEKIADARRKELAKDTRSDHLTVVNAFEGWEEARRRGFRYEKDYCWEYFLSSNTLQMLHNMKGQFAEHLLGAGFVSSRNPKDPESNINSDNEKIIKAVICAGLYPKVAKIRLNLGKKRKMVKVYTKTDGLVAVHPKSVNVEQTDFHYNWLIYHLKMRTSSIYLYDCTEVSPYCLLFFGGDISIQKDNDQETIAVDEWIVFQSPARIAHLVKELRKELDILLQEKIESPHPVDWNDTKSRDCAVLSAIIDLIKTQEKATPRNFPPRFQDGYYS

B1: hsa-mir-483 (structured_RNA)
RNA: GGGAAAGAGUAGGAUACUUAACCGGUCAGGUGUACGAAGUUUCAGCGGGAGUGGUUCCAUCACGCCUCCUCACGCUGAAGCUUCGUGCAC
B2: hsa-mir-199a-1 (structured_RNA)
RNA: GGGAAUAGUCCGUUCUGGGAAGACUGUCGGUGUACGAAGUUUCAGCCUGUUCAGGAGGCUCUCAAUGUGUACAGCUGAAGCUUCGUGCAC
B3: hsa-mir-6836 (structured_RNA)
RNA: GGGAUAAAAUGGCGGUAGGCCCCAUCUCGGUGUACGAAGUUUCAGCGCAUCCAGACAGCGGGCGAAUGCGCUGAAGCUUCGUGCAC
B4: hsa-mir-7106 (structured_RNA)
RNA: GGGAAGCCUGCAAGUCGACCUCUGAACGGGUGUACGAAGUUUCAGCUGGGAGUGAUCCCAACAGCUGAGCUCCCUGCUGAAGCUUCGUGCAC
B5: hsa-mir-30c-1 (structured_RNA)
RNA: GGGACUCUAGCCUAUUUCGUCUAGCACGGGUGUACGAAGUUUCAGCUCAGCUGUGAGCUCAAGGUGGCUGGGCUGAAGCUUCGUGCAC
B6: hsa-mir-584 (structured_RNA)
RNA: GGGAAAGUGACGAGAGCGUUAUGUCCUCGGUGUACGAAGUUUCAGCCUGAGGAAUUUGCUGGGAUAUGUCAGGCUGAAGCUUCGUGCAC
B7: hsa-mir-6890 (structured_RNA)
RNA: GGGACAUAAUGGAGUUAGGUCCGAAACCGGUGUACGAAGUUUCAGCUAGGGCUGGAUGGUAGGGCCCAGCUGAAGCUUCGUGCAC
B8: hsa-mir-3974 (structured_RNA)
RNA: GGGAAACGUCUUGGCAAGCGACGUCUCCGGUGUACGAAGUUUCAGCAUGCACCCAUAUUUUAAUAUCAAACUAUGACAAAUUGCUGAAGCUUCGUGCAC
B9: hsa-mir-936 (structured_RNA)
RNA: GGGAAGAAGCGCCAUUGCUAGUCAUGCUGGUGUACGAAGUUUCAGCGCAGAAAUCACUCCAGGAGCAACUGAGCUGAAGCUUCGUGCAC
B10: hsa-mir-221 (structured_RNA)
RNA: GGGACACUGGGAUGCCAGUUAGGCCUUAGGUGUACGAAGUUUCAGCAUUUCUGUGUUCGUUAGGCAACAGGCUGAAGCUUCGUGCAC
B11: hsa-mir-3118-2_3118-3_3118-4 (structured_RNA)
RNA: GGGAAUCGUGCGAAGCAGAUUAACCCACGGUGUACGAAGUUUCAGCCACACACAAUCACCGUGUGGCUGAAGCUUCGUGCAC
B12: PARIS_ID27 (structured_RNA)
RNA: GGGAACUUGAGUUGAAGAGCCUAACCGUGGUGUACGAAGUUUCAGCCAUGUCACCCAAAGGGGUAAUUGUCCUACUGGUGGUCUGUAAGAUGAGUUAGGGUGACUUGGCUGAAGCUUCGUGCAC
B13: hsa-mir-548ae-1 (structured_RNA)
RNA: GGGAGACGCCUUUAAAAGUGAAUCGAAUGGUGUACGAAGUUUCAGCUUUGCCAUUAUAAUGGCAAAGCUGAAGCUUCGUGCAC
B14: hsa-mir-4299 (structured_RNA)
RNA: GGGAAUUACAUCUCGGGUGCGUCCAAAUGGUGUACGAAGUUUCAGCGUGUUUUCUCCUUUAGAGAGAGCUGGCUGAAGCUUCGUGCAC
B15: PARIS_ID33 (structured_RNA)
RNA: GGGAACAGCCCGUAGUGGUAAAUUUGAGGGUGUACGAAGUUUCAGCCUGGUCUUGUAAUUAAAAUUCAAACACUAUAGAAAAAGGCCAUGUAGAAGAUAAAAGUUCCUCUAUAAUCCCGGGCUGAAGCUUCGUGCAC
B16: hsa-mir-4436a (structured_RNA)
RNA: GGGAGACGGUUCCAUUGAGGUCGGUGACGGUGUACGAAGUUUCAGCCUGCCCCUCGAAUCUGCUCCACGAUUUGGGCAGGCUGAAGCUUCGUGCAC
B17: hsa-mir-3174 (structured_RNA)
RNA: GGGAACUUUGUCACCACGCCGAUUAUGAGGUGUACGAAGUUUCAGCAGCCCUGGGCUCCUCAGCAAACCUACUGGAUGCUGAAGCUUCGUGCAC
B18: hsa-mir-4313 (structured_RNA)
RNA: GGGAGUAAGAGUCGGGCAUGUAAACGAGGGUGUACGAAGUUUCAGCACCCUGCAGCCCCAGCUGGAGGAUGAGGAGAUGCUGGGCUUGGGUGCUGAAGCUUCGUGCAC
B19: hsa-mir-4648 (structured_RNA)
RNA: GGGAGAGACCCGGGAAUCUCGGUAUACCGGUGUACGAAGUUUCAGCGGAGCUCAGCACCUGCCUGCCACCCACGCAGACCAGCCCCUGCUCUGUUCCCACAGGCUGAAGCUUCGUGCAC
B20: hsa-mir-342 (structured_RNA)
RNA: GGGAAAAGAAUCAAUUCAGCGGUGACCUGGUGUACGAAGUUUCAGCUUGAGGGACAUGGUUAAUGGAAUUGUCUCAGCUGAAGCUUCGUGCAC
B21: hsa-mir-4503 (structured_RNA)
RNA: GGGAAGGAGAACGUUUGACUAGAGAAUAGGUGUACGAAGUUUCAGCUUUACAUAUAAAUUUCUAUUUGUGCUGAAGCUUCGUGCAC
B22: hsa-mir-3928 (structured_RNA)
RNA: GGGACCCAUGAGUAUCGCCUAGUGACUUGGUGUACGAAGUUUCAGCGCCUGCGGGCAGGAAGCGGAGCUGAAGCUUCGUGCAC

For one assay, the target named is U1A (Homo sapiens, UniProt P09012). Description: FOREST: bead pull-down of RNA structure library v1, barcode microarray; U1A/LIN28A: 20 mM HEPES pH 7.5, 80 mM KCl, 20 mM NaCl, 10% glycerol, 2 mM DTT, 0.1 ug/uL BSA, 4 C; BG4/CIRBP/DHX36: 10 mM Tris-HCl pH 7.5, 100 mM KCl (or LiCl),; high values mean tight binding.
As for B1, the binding signal is 0.19 z-score.

As for B2, the binding signal turned out to be 0.194 z-score.

B3 gave a binding signal of 0.19 z-score.

For the molecule B4, the binding signal came to 0.191 z-score.

Molecule B5 returned a binding signal of 0.201 z-score.

B6: the binding signal is 0.207 z-score.

B7 gave a binding signal of 0.189 z-score.

For B8, the binding signal was found to be 1.86 z-score.

Regarding B9, the binding signal was found to be 0.196 z-score.

On to B10, for which the binding signal turned out to be 0.208 z-score.

B11: the binding signal amounted to 0.197 z-score.

B12 registered a binding signal of 0.204 z-score.

Consider B13, for which the binding signal came to 0.206 z-score.

The molecule B14 displayed a binding signal of 0.212 z-score.

On to B15, for which the binding signal was 0.202 z-score.

B16 yielded a binding signal of 0.189 z-score.

For B17, the binding signal turned out to be 0.194 z-score.

Take B18: the binding signal stood at 0.191 z-score.

Turning to B19, the binding signal is 1.86 z-score.

As to B20, the binding signal turned out to be 0.198 z-score.

Molecule B21 yielded a binding signal of 0.212 z-score.

In turn, B22 registered a binding signal of 0.192 z-score.

The target of a further assay is T1, LIN28A. Described as above.
In the case of B1, the binding signal was -0.463 z-score.

Molecule B2 registered a binding signal of 2.65 z-score.

In the case of B3, the binding signal is -0.301 z-score.

Consider B4, for which the binding signal is -1.74 z-score.

In the case of B5, the binding signal was -0.346 z-score.

B6 yielded a binding signal of 0.713 z-score.

With B7, the binding signal was determined as 1.57 z-score.

B8 showed a binding signal of 0.666 z-score.

The molecule B9 registered a binding signal of 0.39 z-score.

In the case of B10, the binding signal was -0.188 z-score.

With B11, the binding signal is -1.17 z-score.

Take B12: the binding signal was determined as 1.65 z-score.

Consider B13, for which the binding signal was -1.75 z-score.

On to B14, for which the binding signal was -1.1 z-score.

Molecule B15 gave a binding signal of 0.153 z-score.

As to B16, the binding signal was -0.606 z-score.

As to B17, the binding signal was -2.17 z-score.

In turn, B18 had a binding signal of 2.04 z-score.

For the molecule B19, the binding signal was -0.804 z-score.

In turn, B20 gave a binding signal of 1.46 z-score.

As for B21, the binding signal was -0.628 z-score.

In turn, B22 had a binding signal of 0.976 z-score.

For the next assay, the target named is T2, CIRBP. Described as above.
Consider B1, for which the binding signal is -0.044 z-score.

Consider B2, for which the binding signal is -0.663 z-score.

For the molecule B3, the binding signal was -1.21 z-score.

In the case of B4, the binding signal is -1.46 z-score.

Turning to B5, the binding signal was -0.281 z-score.

Turning to B6, the binding signal is -1.34 z-score.

As to B7, the binding signal turned out to be 1.78 z-score.

As for B8, the binding signal is -1.02 z-score.

Molecule B9 returned a binding signal of 0.264 z-score.

Turning to B10, the binding signal is -0.187 z-score.

For the molecule B11, the binding signal is -0.951 z-score.

In the case of B12, the binding signal stood at 0.00652 z-score.

Turning to B13, the binding signal was -0.301 z-score.

As for B14, the binding signal was -0.233 z-score.

For B15, the binding signal was found to be 0.855 z-score.

Turning to B16, the binding signal was -1.35 z-score.

Take B17: the binding signal is -0.806 z-score.

As to B18, the binding signal was -0.232 z-score.

As for B19, the binding signal was -1.87 z-score.

B20 came in with a binding signal of 1.76 z-score.

B21 came in with a binding signal of 1.26 z-score.

As for B22, the binding signal was 0.292 z-score.

In another assay the target is T3, DHX36. Described as above.
For the molecule B1, the binding signal was -0.36 z-score.

On to B2, for which the binding signal is -0.586 z-score.

Regarding B3, the binding signal was -0.347 z-score.

In turn, B4 showed a binding signal of 0.0765 z-score.

Consider B5, for which the binding signal is -0.85 z-score.

In the case of B6, the binding signal was -0.799 z-score.

With B7, the binding signal came to 1.82 z-score.

For the molecule B8, the binding signal was -0.557 z-score.

B9: the binding signal was 0.0134 z-score.

As for B10, the binding signal was 0.129 z-score.

For the molecule B11, the binding signal was -1.18 z-score.

For the molecule B12, the binding signal was found to be 0.621 z-score.

With B13, the binding signal was -0.442 z-score.

Take B14: the binding signal was -1.13 z-score.

In the case of B15, the binding signal turned out to be 0.626 z-score.

B16 had a binding signal of 0.463 z-score.

For B17, the binding signal is -1.04 z-score.

As to B18, the binding signal came to 2.19 z-score.

On to B19, for which the binding signal is -0.621 z-score.

For the molecule B20, the binding signal was found to be 0.473 z-score.

In the case of B21, the binding signal is -0.371 z-score.

As to B22, the binding signal amounted to 0.933 z-score.
